Laboratory results published in patent publication US6936584B1, “Mixed amylin activity compounds” (Amylin Pharmaceuticals, Inc., priority 1998, dated 2005).

By UniProt entry, the sequences of proteins in these tests, tags left out. Residues count along the entry.
UniProt O60894, 27-148 partner: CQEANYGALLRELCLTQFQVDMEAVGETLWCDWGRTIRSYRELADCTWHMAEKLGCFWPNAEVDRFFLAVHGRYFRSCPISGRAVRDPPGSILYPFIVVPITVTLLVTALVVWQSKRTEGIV
UniProt Q16602, 23-461: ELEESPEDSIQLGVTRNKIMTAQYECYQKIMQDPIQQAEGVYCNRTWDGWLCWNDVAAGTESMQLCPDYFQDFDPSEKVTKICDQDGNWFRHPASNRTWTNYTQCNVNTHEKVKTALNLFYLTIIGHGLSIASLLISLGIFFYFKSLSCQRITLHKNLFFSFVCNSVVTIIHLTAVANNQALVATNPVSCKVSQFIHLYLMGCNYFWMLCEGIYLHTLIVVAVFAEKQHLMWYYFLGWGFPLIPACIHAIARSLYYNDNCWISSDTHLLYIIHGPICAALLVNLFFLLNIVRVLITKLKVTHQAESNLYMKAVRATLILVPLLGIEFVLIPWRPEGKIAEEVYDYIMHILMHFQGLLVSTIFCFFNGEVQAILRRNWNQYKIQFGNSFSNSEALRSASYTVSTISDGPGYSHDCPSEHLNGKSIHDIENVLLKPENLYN

Legend:
CGRP receptors = biological target: T1, CGRP receptors (Homo sapiens, UniProt O60894+Q16602); test: Binding to membranes from SK-N-MC cells (CGRP receptors), displacement of [125I]human-CGRP; settings: mean ± SEM (n), read-out: Receptor IC50 in nM [mean ± SEM (n)] CGRP
T1 construct: SK-N-MC cells (ATCC No. HTB-10) were homogenized in 50 mM Hepes buffer; host or cells: SK-N-MC human neuroblastoma cells

calcitonin receptors [1] = biological target: T2, calcitonin receptors (Homo sapiens, UniProt P30988); test: Binding to membranes from T47D cells (calcitonin receptors), displacement of [125I]salmon calcitonin; design: Membranes were prepared from confluent cultures of T47D cells; host or cells: T47D human breast carcinoma cells; settings: mean ± SEM (n), read-out: Receptor IC50 in nM [mean ± SEM (n)] Calcitonin
T2 sequence (P30988 25-474): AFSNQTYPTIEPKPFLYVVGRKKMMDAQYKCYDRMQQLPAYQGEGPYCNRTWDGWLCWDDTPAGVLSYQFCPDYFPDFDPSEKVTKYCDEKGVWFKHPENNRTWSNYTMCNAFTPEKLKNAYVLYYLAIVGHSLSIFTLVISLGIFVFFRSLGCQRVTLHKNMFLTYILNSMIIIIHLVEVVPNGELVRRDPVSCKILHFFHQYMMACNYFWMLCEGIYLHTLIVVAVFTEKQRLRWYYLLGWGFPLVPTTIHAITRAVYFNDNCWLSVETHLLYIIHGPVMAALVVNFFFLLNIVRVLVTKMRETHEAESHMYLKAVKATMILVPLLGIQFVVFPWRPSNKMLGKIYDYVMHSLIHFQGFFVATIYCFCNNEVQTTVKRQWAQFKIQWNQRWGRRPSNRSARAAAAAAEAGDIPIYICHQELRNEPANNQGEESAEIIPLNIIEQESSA

calcitonin receptors [2] = biological target: T2, calcitonin receptors; test: Adenyl cyclase stimulation, cyclic AMP accumulation in MCF7-7 cells; type: cell-based; settings: read-out: EC50 cyclic AMP accumulation / adenylyl cyclase activity
amylin receptors = biological target: T3, amylin receptors (Rattus norvegicus, UniProt P32214); test: Binding to rat nucleus accumbens membranes (amylin receptors), displacement of 125I-BH-rat amylin; settings: read-out: Receptor IC50 in nM [mean ± SEM (n)] Amylin
T3 sequence (P32214 25-516): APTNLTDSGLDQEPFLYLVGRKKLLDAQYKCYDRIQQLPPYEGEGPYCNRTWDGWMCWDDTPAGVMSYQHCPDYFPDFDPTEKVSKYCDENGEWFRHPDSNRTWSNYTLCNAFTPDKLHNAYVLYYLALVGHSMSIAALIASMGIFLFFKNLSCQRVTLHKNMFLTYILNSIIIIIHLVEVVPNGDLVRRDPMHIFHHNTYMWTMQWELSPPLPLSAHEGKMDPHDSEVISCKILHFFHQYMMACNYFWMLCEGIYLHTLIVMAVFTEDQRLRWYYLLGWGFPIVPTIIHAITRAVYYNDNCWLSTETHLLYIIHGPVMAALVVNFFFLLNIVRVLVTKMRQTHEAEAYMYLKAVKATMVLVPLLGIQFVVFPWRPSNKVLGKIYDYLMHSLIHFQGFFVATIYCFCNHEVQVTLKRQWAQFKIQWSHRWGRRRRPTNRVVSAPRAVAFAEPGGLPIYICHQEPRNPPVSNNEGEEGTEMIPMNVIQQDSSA

calcitonin receptors [3] = biological target: T2, calcitonin receptors; test: Adenyl cyclase stimulation, cyclic AMP accumulation in T47D cells; type: cell-based

Substance | IC50 (CGRP receptors) | IC50 (calcitonin receptors [1]) | EC50 (calcitonin receptors [2]) | IC50 (amylin receptors) | EC50 (calcitonin receptors [3])
4-methylpentanoyl-Ser-Thr-Ala-Val-Leu-Aib-Lys(For)-Leu-Ser-Gln-Glu-Leu-Aib-Lys(For)-Leu-Gln-Thr-Tyr-Pro-Arg-Thr-Asn-Thr-Gly-Ser-Gly-Thr-Pro [Compound 2] | > 10000 nM | 0.37 nM | 1.6 nM | – | –
Ac-Leu-Ser-Thr-Cys-Val-Leu-Gly-Arg-Leu-Ser-Gln-Glu-Leu-His-Arg-Leu-Gln-Thr-Tyr-Pro-Arg-Thr-Asn-Thr-Gly-Ser-Asn-Thr-Tyr [Compound 7] | 1400 nM | – | – | – | –
Ac-Val-Leu-Aib-Lys(For)-Leu-Ser-Gln-Glu-Leu-Aib-Lys(For)-Leu-Gln-Thr-Tyr-Pro-Arg-Thr-Asn-Thr-Gly-Ser-Asn-Thr-Tyr [Compound 9] | > 10000 nM | 24 nM | – | 7.6 nM | –
Leu-Ser-Thr-Ala-Val-Leu-Gly-Arg-Leu-Ser-Gln-Glu-Leu-His-Arg-Leu-Gln-Thr-Tyr-Pro-Arg-Thr-Asn-Thr-Gly-Ser-Asn-Thr-Tyr [Compound 4] | 92 ± 13 nM | 0.13 nM | 3.5 nM | 0.066 ± 0.008 nM | –
Leu-Ser-Thr-Ser-Val-Leu-Gly-Arg-Leu-Ser-Gln-Glu-Leu-His-Arg-Leu-Gln-Thr-Tyr-Pro-Arg-Thr-Asn-Thr-Gly-Ser-Asn-Thr-Tyr [Compound 5] | 44 ± 12 nM | 0.15 nM | – | 0.092 ± 0.011 nM | –
human calcitonin [reference compound] | – | – | 0.45 nM | – | 3.1 nM
